Data taken from US20260125400A1, “TYK2 DEGRADERS AND USES THEREOF” (Kymera Therapeutics, Inc., priority 2023, published 2026).
Read-outs that look alike come from different tables or passages of the source.

Sequences of proteins named here, by UniProt entry; tags and fusion partners are left off.
UniProt P29597, whole entry: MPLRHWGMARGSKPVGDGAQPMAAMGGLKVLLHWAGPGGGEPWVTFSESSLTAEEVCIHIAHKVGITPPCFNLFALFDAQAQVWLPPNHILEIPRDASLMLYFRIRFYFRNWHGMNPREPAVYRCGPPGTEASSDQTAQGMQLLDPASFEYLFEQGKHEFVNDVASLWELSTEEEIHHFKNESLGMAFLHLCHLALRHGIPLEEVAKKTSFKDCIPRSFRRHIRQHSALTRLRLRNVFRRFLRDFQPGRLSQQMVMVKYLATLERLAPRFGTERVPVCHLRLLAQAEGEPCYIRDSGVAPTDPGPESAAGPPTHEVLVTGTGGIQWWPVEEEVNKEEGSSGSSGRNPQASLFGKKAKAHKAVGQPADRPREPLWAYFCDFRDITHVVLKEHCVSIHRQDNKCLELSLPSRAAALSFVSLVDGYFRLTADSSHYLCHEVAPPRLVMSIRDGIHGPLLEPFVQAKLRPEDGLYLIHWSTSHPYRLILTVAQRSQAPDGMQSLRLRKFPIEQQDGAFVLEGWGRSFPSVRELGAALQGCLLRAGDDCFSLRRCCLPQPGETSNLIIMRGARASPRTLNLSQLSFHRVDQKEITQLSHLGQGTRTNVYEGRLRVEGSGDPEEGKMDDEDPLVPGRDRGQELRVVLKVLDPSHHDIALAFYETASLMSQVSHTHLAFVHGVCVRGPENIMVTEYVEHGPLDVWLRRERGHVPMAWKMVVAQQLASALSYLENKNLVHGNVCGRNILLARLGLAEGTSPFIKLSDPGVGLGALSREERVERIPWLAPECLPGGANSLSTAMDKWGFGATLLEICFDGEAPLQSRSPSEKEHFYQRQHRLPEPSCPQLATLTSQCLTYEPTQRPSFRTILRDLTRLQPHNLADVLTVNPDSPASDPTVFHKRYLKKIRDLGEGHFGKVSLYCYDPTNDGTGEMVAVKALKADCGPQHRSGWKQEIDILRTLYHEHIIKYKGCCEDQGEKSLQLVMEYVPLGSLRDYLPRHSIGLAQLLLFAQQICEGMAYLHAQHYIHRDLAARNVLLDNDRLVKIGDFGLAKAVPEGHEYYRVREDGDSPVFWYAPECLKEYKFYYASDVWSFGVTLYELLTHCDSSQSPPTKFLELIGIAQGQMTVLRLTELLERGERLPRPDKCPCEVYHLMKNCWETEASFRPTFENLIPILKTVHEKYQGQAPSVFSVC

Target: TYK2 (Homo sapiens, UniProt P29597)
Experiment: TYK2 MSD degradation in OCI-LY10 cells
Conditions: for TYK2 MSD OCI-LY10 Dmax %: 4 to 24 hours incubation
Protocol: Example 7. TYK2 MSD Degradation
Degradation of TYK2 in cells was quantitatively measured using Meso Scale Discovery (MSD) technology. OCI-LY10 cells were seeded in 96-well plates with a density of 0.4 million cells per well in 100 μl fresh media. Compounds were then added to the assay plates with a final top concentration of 1 to 10 μM in a 1:3 dilution series with total of 9 doses. The assay plates were then incubated for 4 to 24 hours at 37° C. under […]. The assay plates were then centrifuged for 5 minutes, and the cell pellets were treated with 100 μl/well RIPA lysis buffer (Boston Bioproducts, BP-115D) with protease and phosphatase inhibitors (Roche, 05892791001 and 04906837001). To prepare MSD assay plates (MSD, L15XA), the plates were coated with the capture antibody (Santa Cruz Biotechnology, SC-5271) in PBS, at 40 μl/well. The plates were then incubated overnight at 4° C., washed 3 times with 150 μl/well TBST buffer (Cell Signaling Technology, 9997S) and blocked with 150 μl/well blocking buffer (MSD, R93BA-4). Cell lysates were then added to MSD assay plates and the plates were incubated at room temperature for 1 hour. The plates were then washed 3 times with 150 μl/well TBST buffer and 25 μl/well primary detection antibody (Cell Signaling Technology, #9312). The assay plates were then incubated at room temperature for 1 hour, washed 3 times with 150 μl/well TBST buffer, and 25 μl/well secondary detection antibody, SULFO-TAG anti-rabbit antibody (MSD, R32AB-1) were added. The assay plates were then incubated at room temperature for 1 hour, washed 3 times with 150 μl/well TB ST buffer, and 150 μl/well MSD reading buffer (MSD, R92TC-2) were added. The plates were then analyzed by an MSD reader. The data was analyzed by GraphPad Prism and the dose dependent TYK2 degradation was fit using the four-parameter inhibitor vs. response nonlinear regression.
The letter codes for TYK2 DC50 include: A (<1 nM); B (i to <10 nM); C (10 to 100 nM); D (>100 nM); and E (not tested). The letter codes for TYK2 Dmax % include: A (>90%); B (90 to >75%); C (75 to 50%); D (<50%); and E (not tested).

[1] = TYK2 degradation in OCI-LY10 cells
[2] = read-out: TYK2 MSD OCI-LY10 Rel-DC50, TYK2 degradation in OCI-LY10 cells, 4 to 24 hours incubation
[3] = read-out: TYK2 MSD OCI-LY10 Rel-DC50, OCI-LY10 cells, 4 to 24 hours incubation

| Compound | TYK2 MSD OCI-LY10 Dmax % [1] | DC50 [2] | TYK2 MSD OCI-LY10 Dmax % (OCI-LY10 cells) | DC50 [3] |
| --- | --- | --- | --- | --- |
| CNc1cc(N2CCc3c(CN4CC[C@H](N5CCC6(CCN(C(=O)c7cc(N8CCC(=O)NC8=O)c(Cl)c(C)n7)CC6)CC5)C(F)(F)C4)cccc32)nn2c(C(=O)N[C@@H]3CC[C@H]3OC)cnc12 | A (A (>90%)) | < 1 nM | – | – |
| CNc1cc(N2CCc3c(CN4CCC(N5CCC6(CCN(C(=O)c7cc(C)c(Cl)c(N8CCC(=O)NC8=O)c7)CC6)CC5)C(F)(F)C4)cccc32)nn2c(C(=O)N[C@@H]3CC[C@H]3OC)cnc12 (some centres unmarked) | – | – | A (A (>90%)) | < 1 nM |
| CNc1cc(N2CCc3c(-c4ncc(C(C)N5CC6(CCN(C(=O)c7ccc(Cl)c(N8CCC(=O)NC8=O)c7)CC6(F)F)C5)cc4F)cccc32)nn2c(C(=O)NC3CCC3OC)cnc12 (centres unmarked) | A (A (>90%)) | < 1 nM | – | – |
| CNc1cc(N2CCc3c(N4CCN(CC5CCN(CCc6ccc(Cl)c(C7CCC(=O)NC7=O)c6)CC5)CC4)cccc32)nn2c(C(=O)N[C@@H]3C[C@@H]3F)cnc12 (some centres unmarked) | – | – | D (D (<50%)) | > 100 nM |
| CNc1cc(N2CCc3c(CN4CCC(N5CCC6(CCC(N(C)c7ccc(Cl)c(N8CCC(=O)NC8=O)c7)CC6)CC5)C(F)(F)C4)cccc32)nn2c(C(=O)N[C@@H]3CC[C@H]3OC)cnc12 (some centres unmarked) | B (B (90 to >75%)) | < 10 nM | – | – |
| CNc1cc(N2CCc3c(N4CCO[C@@H](CN5CCN(c6ccc7c(c6)n(C)c(=O)n7C6CCC(=O)NC6=O)CC5)C4)cccc32)nn2c(C(=O)NC3CC3)cnc12 (some centres unmarked) | C (C (75 to 50%)) | < 1 nM | – | – |
| CNc1cc(N2CCc3c(-c4ccc(CN5CCC6(CCN(C(=O)c7cc(N8CCC(=O)NC8=O)c(C)cc7F)CC6)C(F)(F)C5)cn4)cccc32)nn2c(C(=O)N[C@@H]3C[C@@H]3F)cnc12 | – | – | B (B (90 to >75%)) | < 10 nM |
| CNc1cc(N2CCc3c(-c4ccc(N5CC6(CCN(C(=O)c7ccc(Cl)c(N8CCC(=O)NC8=O)c7)CC6)C5)cn4)cccc32)nn2c(C(=O)N[C@@H]3C[C@@H]3F)cnc12 | – | – | D (D (<50%)) | < 10 nM |
| CNc1cc(N2CCc3c(CN4CCC(CN5CCC6(CC5)CCN(C(=O)c5cc(Cl)c(C)c(N7CCC(=O)NC7=O)c5)CC6)C(F)(F)C4)cc(F)cc32)nn2c(C(=O)N[C@@H]3CC[C@H]3OC)cnc12 (some centres unmarked) | A (A (>90%)) | < 1 nM | – | – |
| CO[C@@]1(c2cc(C)cc(-c3cn(C4CCN(CC5CCN(Cc6ccc(Cl)c(C7CCC(=O)NC7=O)c6)CC5)CC4)c4cnc(NC(C)=O)cc34)n2)CCOC1 (some centres unmarked) | D (D (<50%)) | > 100 nM | – | – |
| CNc1cc(N2CCc3c(-c4ncc(CC5CC6(CCN(C(=O)c7cc(C)c(Cl)c(N8CCC(=O)NC8=O)c7)CC6)C5)cc4F)cccc32)nn2c(C(=O)N[C@@H]3CC[C@H]3OC)cnc12 | A (A (>90%)) | < 10 nM | – | – |
| CNc1cc(N2CCc3c(-c4ccc(CN5CCC6(CC5)CC(Oc5ccc(Cl)c(N7CCC(=O)NC7=O)c5)C6)cn4)cccc32)nn2c(C(=O)N[C@@H]3C[C@@H]3F)cnc12 | C (C (75 to 50%)) | < 1 nM | – | – |
| CNc1cc(N2CCc3c(-c4ccc(CN5CCC6(CCN(C(=O)c7ccc(Cl)c(N8CCC(=O)NC8=O)c7)CC6)C(F)(F)C5)cn4)cccc32)nn2c(C(=O)N[C@@H]3CC[C@H]3OC)cnc12 | – | – | B (B (90 to >75%)) | < 1 nM |
| CNc1cc(N2CCc3c(N4CC[C@H](CN5CCN(c6ccc7c(c6)n(C)c(=O)n7C6CCC(=O)NC6=O)CC5)C4)cccc32)nn2c(C(=O)NC3CC3)cnc12 (some centres unmarked) | C (C (75 to 50%)) | < 1 nM | – | – |
| CNc1cc(N2CCc3c(-c4cc(CN5CCN(CC#Cc6cccc(N7CCC(=O)NC7=O)c6C)CC5)ccn4)cccc32)nn2c(C(=O)N[C@@H]3C[C@@H]3F)cnc12 | D (D (<50%)) | > 100 nM | – | – |
| CNc1cc(N2CCc3c(-c4ncc(CN5CC6(CCN(C(=O)c7cc(C)c(Cl)c(N8CCC(=O)NC8=O)c7)CC6(F)F)C5)cc4F)cccc32)nn2c(C(=O)N[C@@H]3CCC3(F)F)cnc12 | A (A (>90%)) | < 1 nM | – | – |
| CNc1cc(N2CCc3c(CN4CCC(N5CCC6(CC5)CN(C(=O)c5cc(Cl)c(C)c(N7CCC(=O)NC7=O)c5)C6)C(F)(F)C4)cccc32)nn2c(C(=O)N[C@@H]3CC[C@H]3OC)cnc12 (some centres unmarked) | A (A (>90%)) | < 1 nM | – | – |

| Compound | TYK2 MSD OCI-LY10 Dmax % [1] | DC50 [2] | TYK2 MSD OCI-LY10 Dmax % (OCI-LY10 cells) | DC50 [3] |
| --- | --- | --- | --- | --- |
| CNc1cc(N2CCc3c(-c4ccc(CN5CC6(CCN(C(=O)c7ccc(Cl)c(N8CCC(=O)NC8=O)c7)CC6(F)F)C5)cn4)cccc32)nn2c(C(=O)N[C@@H]3CC[C@H]3OC)cnc12 | – | – | A (A (>90%)) | < 1 nM |
| CNc1cc(N2CCc3c(-c4ccc(OC5CC6(CCN(Cc7ccc(Cl)c(N8CCC(=O)NC8=O)c7)CC6)C5)cn4)cccc32)nn2c(C(=O)N[C@@H]3C[C@@H]3F)cnc12 | D (D (<50%)) | > 100 nM | – | – |
| CNc1cc(N2CCc3c(N4CCC(CN5CCC(CN6CCN(C(=O)c7cc(N8CCC(=O)NC8=O)c(Cl)c(C)n7)CC6)C(F)(F)C5)CC4)cccc32)nn2c(C(=O)N[C@@H]3CC[C@H]3OC)cnc12 (some centres unmarked) | B (B (90 to >75%)) | < 1 nM | – | – |
| CO[C@@]1(c2cc(-c3ccc(CN4CCC5(CCN(C(=O)c6ccc(Cl)c(N7CCC(=O)NC7=O)c6)CC5)C(F)(F)C4)cn3)cc(-c3cn(C)c4cnc(NC(C)=O)cc34)n2)CCOC1 | B (B (90 to >75%)) | < 1 nM | – | – |
| CNc1cc(N2CCc3c(C4CCN(CC5CN(c6ccc7c(c6)n(C)c(=O)n7C6CCC(=O)NC6=O)C5)CC4)cccc32)nn2c(C(=O)NC3CC3)cnc12 (centres unmarked) | C (C (75 to 50%)) | < 1 nM | – | – |
| CCNC(=O)c1nnc(Nc2ccc(CN3CCC4(CN(c5cc(F)cc(NC6CCC(=O)NC6=O)c5)C4)C(F)(F)C3)cn2)cc1Nc1cccc(F)c1OC (centres unmarked) | D (D (<50%)) | > 100 nM | – | – |
| CNc1cc(N2CCc3c(-c4ccc(CN5CC6(CCN(C(=O)c7ccc(Cl)c(N8CCC(=O)NC8=O)c7)CC6(F)F)C5)cn4)cccc32)nn2c(C(=O)N[C@H]3CC3(F)F)cnc12 | – | – | B (B (90 to >75%)) | < 10 nM |
| CNc1cc(N2CCc3c(CN4CCC(N5CCC6(CCN(C(=O)c7ccc(OC)c(N8CCC(=O)NC8=O)c7)CC6)CC5)C(F)(F)C4)cccc32)nn2c(C(=O)N[C@@H]3C[C@@H]3F)cnc12 (some centres unmarked) | A (A (>90%)) | < 1 nM | – | – |
| CNc1cc(N2CCc3c(-c4ccc(CN5CCC6(CCN(C(=O)c7ccc(Cl)c(N8CCC(=O)NC8=O)c7)CC6)C(F)(F)C5)cn4)cc(F)cc32)nn2c(C(=O)N[C@@H]3C[C@@H]3F)cnc12 | – | – | B (B (90 to >75%)) | < 10 nM |
| CNc1cc(N2CCc3c(CN4CCC(N5CCC(CC6CCN(C(=O)c7cc(Cl)c(C)c(N8CCC(=O)NC8=O)c7)CC6)CC5)C(F)(F)C4)cccc32)nn2c(C(=O)N[C@@H]3CC[C@H]3OC)cnc12 (some centres unmarked) | A (A (>90%)) | < 10 nM | – | – |
| CCNC(=O)c1nnc(Nc2ccc(CN3CCC4(CN(c5ccc(NC6CCC(=O)NC6=O)cc5F)C4)C(F)(F)C3)cn2)cc1Nc1cccc(F)c1OC (centres unmarked) | D (D (<50%)) | > 100 nM | – | – |
| CO[C@@]1(c2cc(-c3ccc(CN4CCC5(CN(C(=O)c6ccc(Cl)c(N7CCC(=O)NC7=O)c6)C5)C(F)(F)C4)cn3)cc(-c3cn(C)c4cnc(NC(C)=O)cc34)n2)CCOC1 | B (B (90 to >75%)) | < 1 nM | – | – |
| CNc1cc(N2CCc3c(CN4CCC(N5CCC6(CCN(C(=O)c7ccc(Cl)c(N8CCC(=O)NC8=O)c7)CC6)CC5)C(F)(F)C4)cccc32)nn2c(C(=O)N[C@@H]3CC[C@H]3OC)cnc12 (some centres unmarked) | A (A (>90%)) | < 1 nM | – | – |
| CNc1cc(N2CCc3c(-c4ncc(CN5CC6(CCN(C(=O)c7cc(N8CCC(=O)NC8=O)c(OC)cc7Cl)CC6(F)F)C5)cc4F)cccc32)nn2c(C(=O)N[C@@H]3CC[C@H]3OC)cnc12 | A (A (>90%)) | < 1 nM | – | – |
| CNc1cc(N2CCc3c(-c4ccc(CN5CCN(CC#Cc6cccc(N7CCC(=O)NC7=O)c6C)CC5)cn4)cccc32)nn2c(C(=O)N[C@@H]3C[C@@H]3F)cnc12 | – | – | C (C (75 to 50%)) | > 100 nM |
| CNc1cc(N2CCc3c(CN4CC[C@@H](N5CCC6(CCN(C(=O)c7cc(C)c(Cl)c(N8CCC(=O)NC8=O)c7)CC6)CC5)C(F)(F)C4)cccc32)nn2c(C(=O)N[C@@H]3CC[C@H]3OC)cnc12 | A (A (>90%)) | < 1 nM | – | – |
| CNc1cc(N2CCc3c(N4CCN(CC5CC6(CCN(Cc7ccc(C8CCC(=O)NC8=O)c(Cl)c7)CC6)C5)CC4)cccc32)nn2c(C(=O)N[C@@H]3C[C@@H]3F)cnc12 (some centres unmarked) | – | – | D (D (<50%)) | > 100 nM |
